In patent US20040210047A1, “Methallyl sucroses and their epoxy derivatives” (priority 2003, published 2004):

Key:
[1] = test system: Salmonella Typhimurium TA-98; test: Modified Maron-Ames test, strain TA-98; details: for mutagenicity (revertant colonies): strain TA-98, with or without metabolic activation S-9; for cytotoxicity and mutagenicity, overall conclusion: tester strain TA-98, all concentrations
Method: Serial dilutions (100 fold) were made with DMSO to obtain samples with dilution factors of 10^−3, 10^−5, and 10^−7. The assays were performed according to the modified methods of Maron and Ames (Maron D. R. and Ames, B. N. Mutation Research, 1980, Vol. 113, 173-215) using two strains of Salmonella Typhimurium TA-98 and TA-100, with and without metabolic activation of the substrate. The male rat microsomal homogenate S-9 was used to effect metabolic activation of the substrate. TA-98 and TA-100 were cultured in Oxoid Nutrient Broth No.2 at 37° C. for 16 hours using a gyratory shaker (200-250 rpm).
(§1) Compounds were assayed after the bacteria tested positive for the viability-related criteria above. Two mL top agar was placed in sterile culture tubes and kept at ˜40° C. in a water bath. Samples (100 μL) were placed in each tube (3 tubes per sample) and 100 μL of either strain TA-98 or TA-100 was added. When required, the S-9 homogenate (500 μL) was then added. The tubes were mixed and poured into minimal glucose agar plates. The plates were left at room temperature until the top agar solidified. Then, they were inverted and incubated at 37° C. for 48 hours. After incubation, revertant colonies were counted. Samples that presented greater than 2 times the number of revertant colonies were considered mutagenic. (See FIGS. 9(a) through (f)).

[2] = test system: Salmonella Typhimurium TA-100; test: Modified Maron-Ames test, strain TA-100
Method: […] The assays were performed according to the modified methods of Maron and Ames (Maron D. R. and Ames, B. N. Mutation Research, 1980, Vol. 113, 173-215) using two strains of Salmonella Typhimurium TA-98 and TA-100, with and without metabolic activation of the substrate. The male rat microsomal homogenate S-9 was used to effect metabolic activation of the substrate. TA-98 and TA-100 were cultured in Oxoid Nutrient Broth No.2 at 37° C. for 16 hours using a gyratory shaker (200-250 rpm).
as §1

Row | Substance | mutagenicity (revertant colonies) [1] | cytotoxicity and mutagenicity, overall conclusion [1] | mutagenic potential [2]
1 | epoxycrotyl sucrose [ECS] | no apparent mutagenicity | neither cytotoxic nor mutagenic | no mutagenic potential
2 | epoxyallyl sucrose [EAS] | no apparent mutagenicity | neither cytotoxic nor mutagenic | no mutagenic potential
